From PubChem BioAssay AID504444 (National Center for Advancing Translational Sciences (NCATS), 2011)
The list shows a part of the results, in another mix than the full data. Results filed as inconclusive are left out. A call without a number means that no potency is given here. Active and inactive are the calls of the source. The call rests on the fitted dose curve; in most records, active means well fitted inhibition curve with a large enough effect; inconclusive means small, poorly fitted or top-dose-only effect, or effect the other way; inactive means flat fitted curve, though single readings scatter.

experiment: Nrf2 qHTS screen for inhibitors; conditions: A549 ARE-Fluc reporter, luciferase luminescence, 18-24 h; series mostly up to 46 µM; further: nearly all actives have a fitted effect of over 60% in size
Potency means the concentration at half of the fitted maximal effect.

Row | SMILES | Potency
1 | Oc1ccccc1CNc1ccccn1 | inactive
2 | O=C(NC(Sc1ccncn1)C(Cl)(Cl)Cl)c1ccccc1 (centres undefined) | inactive
3 | Nc1cc(N)c2nonc2c1[N+](=O)[O-] | inactive
4 | CC(C)CC(=O)NC(Sc1ccc(Cl)cc1)C(Cl)(Cl)Cl (centres undefined) | inactive
5 | O=P1(Nc2nc3ccc(Cl)cc3s2)COc2ccccc2O1 (centres undefined) | inactive
6 | CC(C)(C)C(=O)NC(Sc1ccccc1)C(Cl)(Cl)Cl (centres undefined) | inactive
7 | CCc1cc(O)c([N+](=O)[O-])c(C)c1[N+](=O)[O-] | inactive
8 | Cc1ccccc1CN(C)C(=O)COC(=O)C(O)(c1ccccc1)c1ccccc1 | inactive
9 | C[C@H]1OP(=O)(Oc2ccccc2)C[C@@H]2O[C@@H]21 (some centres undefined) | inactive
10 | C[C@@H]1C=CCP(=O)(Oc2ccccc2)O1 (some centres undefined) | inactive
11 | CC(=O)c1ccc(N2CC2c2ccncc2)cc1 (centres undefined) | inactive
12 | N#C/C(=C\c1ccc(N(CCBr)CCBr)cc1)C(N)=O | active: 25.9 µM
13 | COC(=O)C1(C)COP(=O)(NCc2ccccc2)OC1 (centres undefined) | inactive
14 | CC(=O)Nc1ccc([As](=O)(O)O)c(O)c1 | inactive
15 | CC(=O)Nc1ccc(Oc2c([N+](=O)[O-])cc([N+](=O)[O-])cc2[N+](=O)[O-])cc1 | inactive
16 | c1ccc(-c2nn[nH]n2)c(-c2nn[nH]n2)c1 | inactive
17 | Cc1ccc(NP(=O)(Oc2cccc(C)c2)Oc2cccc(C)c2)nc1 | inactive
18 | O=C(NC1CCS(=O)(=O)C1)NP(=S)(Oc1ccccc1)Oc1ccccc1 (centres undefined) | inactive
19 | CCNC(=S)/N=C(\N)N[N+](=O)[O-] | inactive
20 | O=P1(N(CCCl)CCCl)OCCC2CCCCN21 (centres undefined) | inactive
21 | O=C(OC1CN2CCC1CC2)c1ccccc1 (centres undefined) | inactive
22 | CCC(=O)N1C2C3N(C(=O)CC)C1C1N(C(=O)CC)C(C(N1C(=O)CC)N3C(=O)CC)N2C(=O)CC | inactive
23 | COC(=O)c1cc2c(s1)N=C(c1ccccc1)N(C)P2(=O)N1CCOCC1 (centres undefined) | inactive

Row | SMILES | Potency
24 | CC(=O)NC(SC(=S)N(CC(C)C)CC(C)C)C(Cl)(Cl)Cl (centres undefined) | inactive
25 | CC(NC(=O)COC(=O)C(O)(c1ccccc1)c1ccccc1)c1ccccc1 (centres undefined) | inactive
26 | Cc1ccccc1OP(=O)(Nc1ccccn1)Oc1ccccc1C | inactive
27 | CN(C)C(=O)Oc1noc2ccccc12 | inactive
28 | CN(C)C1(CNC(=O)c2ccc(Cl)c(S(N)(=O)=O)c2)CCCCC1 | inactive
29 | O=P(Nc1ccccn1)(c1ccc(Br)cc1)c1ccc(Br)cc1 | inactive
30 | O=P(Nc1nc2ccccc2s1)(c1ccccc1)c1ccccc1 | inactive
31 | C[C@H]1OP(=O)(Oc2ccccc2)[C@H](O)[C@H](O)[C@H]1N=[N+]=[N-] (some centres undefined) | inactive
32 | O=[As](O)(c1ccccc1)c1ccc(O)cc1 | inactive
33 | O=[N+]([O-])c1ncn(CCn2cnc([N+](=O)[O-])n2)n1 | inactive
34 | CC(=O)NC(SC(=S)N(C)C)C(Cl)(Cl)Cl (centres undefined) | inactive
35 | O=[N+]([O-])c1ccc(O)c(/C=N/Nc2ccc([N+](=O)[O-])cc2[N+](=O)[O-])c1 | inactive
36 | O=C(OC1CN2CCC1CC2)c1cccc(Cl)c1 (centres undefined) | inactive
37 | C(Cc1nn[nH]n1)Cc1nn[nH]n1 | inactive
38 | Nc1ccc([As](=O)(O)c2ccc([N+](=O)[O-])cc2)cc1 | inactive
39 | O=P(Nc1nccs1)(c1ccccc1)c1ccccc1 | inactive
40 | CC(C)C(=O)NC(Sc1ccccc1)C(Cl)(Cl)Cl (centres undefined) | inactive
41 | c1nnnn1CCn1cnnn1 | inactive
42 | CCC1=CC2Cc3nc4ccc(Cl)cc4c(N)c3C(C1)C2 (centres undefined) | inactive
43 | O=P1(Nc2ccccn2)COc2ccccc2OC1 | inactive
44 | CCOP(=O)(NC(=NC(C)c1ccccc1)NC(C)c1ccccc1)OCC (centres undefined) | inactive
45 | CCOP(=O)(Nc1ccc(C)cn1)OCC | inactive
46 | CN(CCCl)Cc1cc(Cl)c(NC2=NCCN2)c(Cl)c1 | inactive

Row | SMILES | Potency
47 | Clc1n[nH]nc1-c1nn[nH][15n]1 | inactive
48 | CC(C)(C)C(=O)NC(Sc1ncccn1)C(Cl)(Cl)Cl (centres undefined) | inactive
49 | COc1ccccc1CNC(=O)COC(=O)C(O)(c1ccccc1)c1ccccc1 | inactive
50 | CC1(CBr)Cn2c(nc3ccccc3c2=O)S1 (centres undefined) | inactive
51 | Cc1nn(-c2ccccc2)c2c1P(=O)(N1CCOCC1)N(C)C(c1ccccc1)=N2 (centres undefined) | inactive
52 | Cc1ccc(C(=O)OC2CN3CCC2CC3)cc1 (centres undefined) | inactive
53 | CC1CCC(C(C)C)C(OP(=O)(Nc2ccccn2)c2ccccc2)C1 (centres undefined) | active: 14.6 µM
54 | CN(C)C1(CNC(=O)c2ccc(S(C)(=O)=O)cc2)CCCCC1 | inactive
55 | O=C(/C=C/c1ccccc1)OC1CN2CCC1CC2 (centres undefined) | inactive
56 | CCCC1OP(=O)(Nc2ccccc2)OCC1CC (centres undefined) | inactive
57 | O=P1(Nc2ncccn2)COc2ccccc2OC1 | inactive
58 | Nc1cccc([As](=O)(O)c2ccccc2)c1 | inactive
59 | O=[As](O)(c1cccs1)c1cccs1 | inactive
60 | Cc1ccc(OCC(=O)OC2CN3CCC2CC3)cc1 (centres undefined) | inactive
61 | NS(=O)(=O)c1cccc(NC(=O)COC(=O)C(O)(c2ccccc2)c2ccccc2)c1 | inactive
62 | O=P1(Nc2ccc(Br)cn2)COc2ccccc2OC1 | inactive
63 | CCOP1(=S)c2c(C)nn(CCC#N)c2N=C(c2ccccc2F)N1C (centres undefined) | inactive
64 | O=P(Nc1nccs1)(Oc1ccccc1)Oc1ccccc1 | inactive
65 | O=P(Nc1nccs1)(c1ccccc1)c1nc2ccccc2s1 (centres undefined) | inactive
66 | CS(=O)(=O)c1cc([N+](=O)[O-])c2no[n+]([O-])c2c1 | inactive
67 | O=C(O)COc1ccc([As](=O)(O)O)cc1[N+](=O)[O-] | inactive
68 | Nc1ccccc1[As](=O)(O)c1ccccc1 | inactive
69 | NC(=O)Nc1ccc([As](=O)(O)O)cc1 | inactive

Row | SMILES | Potency
70 | N#CCCN(C(=O)COC(=O)C(O)(c1ccccc1)c1ccccc1)c1ccc(F)cc1 | inactive
71 | CCOP1(=S)c2c(C)nn(CCC#N)c2N=C(c2ccc(F)cc2)N1C (centres undefined) | inactive
72 | CN(C(=O)Cc1ccccc1)[C@@H]1CC[C@]2(CCCO2)C[C@H]1N1CCCC1 | inactive
73 | CN(C)C(=O)c1cc([N+](=O)[O-])cc2c1-c1c(cc([N+](=O)[O-])cc1[N+](=O)[O-])C2=O | inactive
74 | CN(C(=O)Cc1ccc(Cl)c(Cl)c1)[C@H]1CC[C@@]2(CCCO2)C[C@@H]1N1CCCC1 | inactive
75 | O=C(OC1CN2CCC1CC2)c1ccc(Cl)cc1 (centres undefined) | inactive
76 | O=[As](O)(O)c1cccnc1 | inactive
77 | COc1cc(C(=O)NCC2(N3CCOCC3)CCCCC2)cc(Cl)c1OC(C)C | inactive
78 | CS(=O)(=O)c1ccc(Cl)c(NC(=O)COC(=O)C(O)(c2ccccc2)c2ccccc2)c1 | inactive
79 | Nc1cccc2c([As](=O)(O)O)cccc12 | inactive
80 | Cc1ccc(NCCc2c([N+](=O)[O-])cc([N+](=O)[O-])cc2[N+](=O)[O-])cc1 | inactive
81 | CCCOP(=S)(Nc1nc(N)cc(=O)[nH]1)OCCC | inactive
82 | COc1cc(C2NCCC3(OCCO3)C2(C)C)cc(OC)c1OC (centres undefined) | inactive
83 | CCOP(=O)(Nc1cccc2ccccc12)OCC | inactive
84 | Cc1c2c(nc3ccccc13)SC(C(Cl)Cl)C2 (centres undefined) | inactive
85 | O=C(OC1CN2CCC1CC2)C12CC3CC(CC(C3)C1)C2 (centres undefined) | inactive
86 | Cc1cc(=O)[nH]c(N[N+](=O)[O-])n1 | inactive
87 | O=P1(N(CCCl)CCCl)OCCCN1CCCl (centres undefined) | inactive
88 | COc1ccc2nc(NP(=O)(c3ccccc3)c3ccccc3)sc2c1 | inactive
89 | COc1cc(I)ccc1[As](=O)(O)O | inactive
90 | O=[N+]([O-])c1cc(Oc2ccc([N+](=O)[O-])cc2C(F)(F)F)cc([N+](=O)[O-])c1 | inactive
91 | COc1ccc(N/C(=N/P(=O)(N2CCOCC2)N2CCOCC2)N2CCOCC2)cc1 | inactive
92 | C[As](=O)(O)c1cccc(C(=O)O)c1 | inactive

Row | SMILES | Potency
93 | O=[As](O)(c1ccc(O)cc1)c1ccccc1O | inactive
94 | O=[N+]([O-])c1ccc(-c2cc([N+](=O)[O-])c(O)c([N+](=O)[O-])c2)cc1 | inactive
95 | COc1cc(C(=O)NCC2(N3CCOCC3)CCCCC2)ccc1OCC(C)C | inactive
96 | Cc1ccc(OP(=O)(Nc2ccc([N+](=O)[O-])cn2)Oc2ccc(C)cc2)cc1 | inactive
97 | ClCCSc1nnc(-c2cccnc2)o1 | inactive
98 | COC(=O)C1(C)COP(=O)(N2CCCCCC2)OC1 (centres undefined) | inactive
99 | CC(C)NC(=O)NP(=O)(Oc1ccccc1)Oc1ccccc1 | inactive
100 | O=C(OC1CN2CCC1CC2)c1cccc2[nH]cnc12 (centres undefined) | inactive
101 | CCOC(=O)Nc1ccc([As](=O)(O)O)c(O)c1 | inactive
102 | CC1CCNP(=O)(N(CCCl)CCCl)O1 (centres undefined) | inactive
103 | CCCCOc1ccc(C(=O)NCC2(N3CCCCC3)CCCCC2)cc1OC | inactive
104 | Cc1cc(SC(NC(=O)c2ccccc2)C(Cl)(Cl)Cl)nc(C(C)C)n1 (centres undefined) | inactive
105 | CCOC(=O)Nc1cccc([As](=O)(O)O)c1 | inactive
106 | Cc1cc(SC(NC=O)C(Cl)(Cl)Cl)ncn1 (centres undefined) | inactive
107 | O=P(Nc1ccccn1)(c1cccc2ccccc12)c1cccc2ccccc12 | inactive
108 | O=[N+]([O-])c1ccc(Nc2ccc(Oc3ccc([N+](=O)[O-])cc3[N+](=O)[O-])cc2)c([N+](=O)[O-])c1 | inactive
109 | COP1(=S)c2c(C)nn(CCC#N)c2N=C(c2ccc(F)cc2)N1C (centres undefined) | inactive
110 | O=C(COc1ccccc1)OC1CN2CCC1CC2 (centres undefined) | inactive
111 | O=C(Nc1ccncc1[N+](=O)[O-])c1ccc([N+](=O)[O-])cc1[N+](=O)[O-] | inactive
112 | O=C(OC1CN2CCC1CC2)c1cccc([N+](=O)[O-])c1 (centres undefined) | inactive
113 | CCOC(=O)c1ccc(NC(=O)C(C)(CCl)SC)cc1 (centres undefined) | inactive
114 | CCOP(=O)(Nc1cccc2cccnc12)OCC | inactive
